The record followed here is US20070066632A1, “Fused bicyclic inhibitors of TGFbeta” (Scios, Inc., priority 2005, published 2007).

The chains behind the UniProt entries cited, without tags or fusion partners. Residues count along the entry.
UniProt P36897, 34-503 limits assumed: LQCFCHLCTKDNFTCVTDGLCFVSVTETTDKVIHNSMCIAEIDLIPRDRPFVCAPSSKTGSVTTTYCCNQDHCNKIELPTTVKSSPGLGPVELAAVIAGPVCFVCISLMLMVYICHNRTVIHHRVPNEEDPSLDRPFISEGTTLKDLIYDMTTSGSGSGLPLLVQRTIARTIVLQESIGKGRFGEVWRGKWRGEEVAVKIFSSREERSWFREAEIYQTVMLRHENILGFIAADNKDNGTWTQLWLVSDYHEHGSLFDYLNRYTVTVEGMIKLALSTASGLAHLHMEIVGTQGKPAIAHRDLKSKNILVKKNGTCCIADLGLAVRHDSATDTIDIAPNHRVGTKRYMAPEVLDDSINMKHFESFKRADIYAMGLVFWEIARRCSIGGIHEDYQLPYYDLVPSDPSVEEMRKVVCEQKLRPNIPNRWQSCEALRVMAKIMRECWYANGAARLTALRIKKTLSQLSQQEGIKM

The structures appear in SMILES notation.

In the experiment the target is TGFβ R1 (Homo sapiens, UniProt P36897). Nature of the experiment: TGFβ R1 autophosphorylation protocol. Conditions: read-out: IC50 for Kinase Inhibition; 10 uM ATP, 170 nM TGFβ R1, 20 minutes at room temperature. The method, then: The compounds of the invention were tested for their ability to inhibit TGFβ by a TGFβ R^1 autophosphorylation protocol. This was conducted as follows: Compound dilutions and reagents were prepared fresh daily. Compounds were diluted from DMSO stock solutions to 2 times the desired assay concentration, keeping final DMSO concentration in the assay less than or equal to 1%. TGFβ R1 was diluted to 4 times the desired assay concentration in buffer+DTT. ATP was diluted into 4× reaction buffer, and gamma-^33P-ATP was added at 60 uCi/mL.
The assay was performed by adding 10 ul of the enzyme to 20 ul of the compound solution. The reaction was initiated by the addition of 10 ul of ATP mix. Final assay conditions included 10 uM ATP, 170 nM TGFβ R1, and […] in 20 mM MOPS, pH7. The reactions were incubated at room temperature for 20 minutes. The reactions were stopped by transferring 23 ul of reaction mixture onto a phosphocellulose 96-well filter plate, which had been pre-wetted with 15 ul of 0.25M H3PO4 per well. After 5 minutes, the wells were washed 4× with 75 mM H3PO4 and once with 95% ethanol. The plate was dried, scintillation cocktail was added to each well, and the wells were counted in a Packard TopCount microplate scintillation counter.

`COc1ccc(CNc2ccc3c(Nc4ccncc4C(=O)NCCCN)nc(-c4cc(Cl)ccc4F)nc3n2)cc1`: the IC50 was found to be 3.46 µM.

A word on the IC50: it is the point on the concentration scale where inhibition reaches its midpoint.
